{"sequences": {"note": "By UniProt entry, the sequences of proteins in these tests, tags left out.", "UniProt P19020, whole entry": "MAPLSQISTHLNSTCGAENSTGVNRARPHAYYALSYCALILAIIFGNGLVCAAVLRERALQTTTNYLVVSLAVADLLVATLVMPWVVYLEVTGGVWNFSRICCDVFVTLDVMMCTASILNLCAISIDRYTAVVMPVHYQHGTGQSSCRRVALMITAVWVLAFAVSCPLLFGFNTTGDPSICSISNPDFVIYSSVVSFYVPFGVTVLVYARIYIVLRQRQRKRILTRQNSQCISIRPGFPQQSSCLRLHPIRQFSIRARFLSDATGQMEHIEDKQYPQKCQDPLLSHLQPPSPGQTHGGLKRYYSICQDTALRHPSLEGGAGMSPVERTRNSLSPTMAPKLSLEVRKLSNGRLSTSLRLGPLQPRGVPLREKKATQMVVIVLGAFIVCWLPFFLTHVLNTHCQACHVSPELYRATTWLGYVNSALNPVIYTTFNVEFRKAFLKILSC"}, "source": "patent US8802672B2", "about": "“Pyrimidinyl-piperazines useful as D3/D2 receptor ligands” (Richter Gedeon Nyrt., priority 2007, dated 2014)", "target": "rat recombinant D3 receptors (Rattus norvegicus (Rat), UniProt P19020)", "test": "D3 receptor binding"}
{"smiles": "CNc1nc(Cl)c(Cl)c(N2CCN(CC[C@H]3CC[C@H](NC(=O)N4CCOCC4)CC3)CC2)n1", "note": "[Compound 7, trans-morpholine-4-carboxylic acid (4-{2-[4-(5,6-dichloro-2-methylamino-pyrimidin-4-yl)-piperazin-1-yl]-ethyl}-cyclohexyl)-amide]", "values": [{"measurement": "Sel. = D2/D3 selectivity, Ki for D2 receptor divided by Ki for D3 receptor", "value": 7}]}
